Target: Amine oxidase [flavin-containing] A (Homo sapiens, UniProt P21397)
Assay: biochemical

Protein sequences, listed by entry. Tags and fused reporters are not part of them.
UniProt P21397, whole entry: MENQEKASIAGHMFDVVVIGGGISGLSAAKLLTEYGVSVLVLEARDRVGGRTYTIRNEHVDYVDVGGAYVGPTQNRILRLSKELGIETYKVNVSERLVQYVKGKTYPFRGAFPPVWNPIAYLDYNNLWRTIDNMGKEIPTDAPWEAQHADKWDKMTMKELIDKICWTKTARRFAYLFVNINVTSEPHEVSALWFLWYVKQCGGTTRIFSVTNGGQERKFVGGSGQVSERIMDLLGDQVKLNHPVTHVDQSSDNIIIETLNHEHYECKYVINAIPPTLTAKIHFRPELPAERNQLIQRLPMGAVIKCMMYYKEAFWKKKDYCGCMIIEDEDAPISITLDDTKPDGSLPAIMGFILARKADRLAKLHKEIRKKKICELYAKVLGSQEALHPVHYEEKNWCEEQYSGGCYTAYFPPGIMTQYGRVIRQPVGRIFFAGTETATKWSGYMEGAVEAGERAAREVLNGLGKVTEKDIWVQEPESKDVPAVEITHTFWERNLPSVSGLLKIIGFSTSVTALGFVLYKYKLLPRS

C#CCN(C)Cc1ccccc1 [PARGYLINE]
IC50: > 20 µM

Reference: ChEMBL document CHEMBL4422655, “Osthenol, a prenylated coumarin, as a monoamine oxidase A inhibitor with high selectivity” (Bioorg Med Chem Lett, 2019)
